Measurements taken from PMC3945162 (Psychopharmacology, 2013).

Sequences of proteins named here, by UniProt entry; tags and fusion partners are left off. Residues count along the entry.
UniProt P28335, 33-458: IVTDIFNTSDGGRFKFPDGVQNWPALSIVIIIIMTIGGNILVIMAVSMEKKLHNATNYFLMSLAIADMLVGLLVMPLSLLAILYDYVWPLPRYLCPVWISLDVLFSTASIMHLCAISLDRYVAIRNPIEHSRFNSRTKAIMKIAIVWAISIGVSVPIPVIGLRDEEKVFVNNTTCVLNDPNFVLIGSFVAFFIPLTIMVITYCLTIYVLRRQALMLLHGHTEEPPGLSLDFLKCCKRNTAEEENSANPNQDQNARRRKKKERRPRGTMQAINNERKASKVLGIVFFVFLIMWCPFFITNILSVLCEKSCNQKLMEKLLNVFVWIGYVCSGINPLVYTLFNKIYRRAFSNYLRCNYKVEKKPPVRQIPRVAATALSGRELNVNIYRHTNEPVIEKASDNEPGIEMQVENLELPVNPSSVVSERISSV

Tests used:
human 5-HT2C receptor [1] = biological target: T1, human 5-HT2C receptor (Homo sapiens, UniProt P28335); experiment: cell-based
human 5-HT2C receptor [2] = biological target: T1, human 5-HT2C receptor; experiment: biochemical

CNC(C)Cc1ccc2c(c1)OCO2 (centres unmarked) [MDMA, 3,4-methylenedioxymethamphetamine, reference compound]
EC50 (human 5-HT2C receptor [1]): 9.1 ± 1.5 µM | Ki (human 5-HT2C receptor [2]): 9.6 ± 2.4 µM
